# Laboratory results taken from US20050153947A1, “Methods and reagents for the treatment of diseases and disorders associated with increased levels of proinflammatory cytokines” (priority 2002, published 2005).
# Tested on: IL-2
# Experiment: IL-2 secretion by white blood cells/PBMC stimulated with phorbol 12-myristate 13-acetate and ionomycin (PI), ELISA
# Details: R(+) fluoxetine alone; concentration (μM), 58 to 0.028
compound,measurement,value
CNCC[C@@H](Oc1ccc(C(F)(F)F)cc1)c1ccccc1 [R(+) Fluoxetine],"percent inhibition of cytokine secretion, IL-2",72%
